For 1 compound, Survivors results are on record in US5610319A, “Compound useful as antiproliferative agents and GARFT inhibitors” (Agouron Pharmaceuticals, Inc., priority 1995, dated 1997).

The test system of the data set is C3H/BA mammary adenocarcinoma. The data set is classed as in vivo, C3H/He female mice. As to conditions: 5 mg/kg, intraperitoneal, once daily for nine days. How it is done: On day zero, 2 mm^2 trocar fragments of C3H/BA mammary adenocarcinoma were implanted subcutaneously in the axillary region into groups of six C3H/He female mice. Starting on day 1, the test compound was administered intraperitoneally in 40% Encapsin given once daily for nine days. Control animals received identical treatment without test compound. The percentage of inhibition was calculated by comparing the mass of the control tumors (receiving diluent only) on day 14 to those of animals receiving test compound.

Consider `Nc1nc2c(c(=O)[nH]1)SC(CCc1ccc(C(=O)N[C@@H](CCC(=O)O)C(=O)O)s1)CN2` (stereo partly drawn) [Compound 21, 4-[2-(2-Amino-4-oxo-4,6,7,8-tetrahydro-3H-pyrimido[5,4-6][1,4]thiazin-6-yl)-ethyl]-2,5-thienoylamino-L-glutamic acid], for which the Survivors is recorded as 5/6.
